Measurements reported in US7632933B2, “Corticotropin releasing factor 2 receptor agonists” (priority 2002, dated 2009).
pEC50: −log10 of the molar value.

Assays:
[1] = target: T1, CRF2R (Homo sapiens, UniProt Q13324); test: CRF2R agonist activity (EC50 and Emax), called comparative CRF binding; format: cell-based; settings: for EC50: CRF2R EC50 (nM), CRF2R
T1 sequence (Q13324 1-411): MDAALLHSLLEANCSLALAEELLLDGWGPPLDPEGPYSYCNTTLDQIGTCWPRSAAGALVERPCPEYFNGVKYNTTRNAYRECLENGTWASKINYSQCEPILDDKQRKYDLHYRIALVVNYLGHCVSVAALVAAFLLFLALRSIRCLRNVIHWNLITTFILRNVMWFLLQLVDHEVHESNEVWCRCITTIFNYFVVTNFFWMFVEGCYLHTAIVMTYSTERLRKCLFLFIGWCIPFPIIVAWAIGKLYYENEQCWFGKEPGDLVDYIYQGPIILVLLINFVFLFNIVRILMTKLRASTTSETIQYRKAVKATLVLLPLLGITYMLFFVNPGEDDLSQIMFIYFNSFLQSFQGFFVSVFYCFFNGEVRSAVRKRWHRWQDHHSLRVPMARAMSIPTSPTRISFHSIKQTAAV
Procedure, shortened: (§1)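 Steps: express single CRFR subtype in cells; add peptide or vehicle; prepare lysates or quantify CRE-linked reporter (e.g. luciferase, CAT, GFP, alkaline phosphatase) to gauge cAMP increase.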

[2] = target: T2, CRF1R (Homo sapiens, UniProt P34998); test: CRF1R agonist activity (EC50 and Emax), called comparative CRF binding; format: cell-based; settings: for EC50: CRF1R EC50 (nM), CRF1R
T2 sequence (P34998 24-415): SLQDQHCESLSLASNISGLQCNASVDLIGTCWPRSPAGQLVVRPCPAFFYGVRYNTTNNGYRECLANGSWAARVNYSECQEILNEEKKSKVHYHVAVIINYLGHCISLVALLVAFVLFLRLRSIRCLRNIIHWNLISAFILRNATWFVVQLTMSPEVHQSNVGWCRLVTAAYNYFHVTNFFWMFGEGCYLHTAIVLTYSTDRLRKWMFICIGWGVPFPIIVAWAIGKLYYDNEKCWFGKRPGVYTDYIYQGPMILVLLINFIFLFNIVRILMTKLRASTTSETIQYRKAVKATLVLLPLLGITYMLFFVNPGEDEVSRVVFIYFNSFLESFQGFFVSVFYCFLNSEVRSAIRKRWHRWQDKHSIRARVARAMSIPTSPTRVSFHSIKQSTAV
Procedure, shortened: as §1

| SMILES | EC50 [1] [nM] | EC50 [2] [nM] | pEC50 ([1]; CRF2R EC50) | pEC50 ([2]; CRF1R EC50) |
| --- | --- | --- | --- | --- |
| CC[C@H](C)[C@H](NC(=O)[C@@H](NC(=O)[C@H](CC(=O)O)NC(=O)[C@H](CC(C)C)NC(=O)[C@H](CC(C)C)NC(=O)[C@H](CC(C)C)NC(=O)[C@H](CCCNC(=N)N)NC(=O)[C@H](CC(N)=O)NC(=O)[C@H](CC(N)=O)NC(=O)[C@H](C)NC(=O)[C@H](C)NC(=O)[C@H](CCC(N)=O)NC(=O)[C@H](CCC(N)=O)NC(=O)[C@H](CCCCN)NC(=O)[C@H](CCC(=O)O)NC(=O)[C@H](CCCCN)NC(=O)[C@H](CCC(=O)O)NC(=O)[C@H](CCC(N)=O)NC(=O)[C@H](CCCCN)NC(=O)[C@H](CCC(=O)O)NC(=O)[C@@H](NC(=O)[C@H](CCC(=O)O)NC(=O)[C@@H](NC(=O)[C@H](CCSC)NC(=O)[C@H](CCCCN)NC(=O)[C@H](CCCNC(=N)N)NC(=O)[C@H](CC(C)C)NC(=O)[C@H](CC(C)C)NC(=O)[C@H](CC(=O)O)NC(=O)[C@@H](NC(=O)[C@@H]1CCCN1C(=O)[C@H](CC(C)C)NC(=O)[C@H](CC(=O)O)NC(=O)[C@@H](NC(=O)[C@H](CO)NC(=O)[C@@H](NC(=O)[C@@H]1CCCN1C(=O)[C@@H]1CCCN1C(=O)CNC(=O)[C@@H]1CCC(=O)N1)[C@@H](C)CC)[C@@H](C)CC)[C@@H](C)CC)[C@@H](C)CC)[C@@H](C)CC)[C@@H](C)O)C(N)=O [compound 28] | ≥ 100 | > 1000 | – | – |
| CC[C@H](C)[C@H](N)C(=O)N[C@H](C(=O)N[C@@H](CC(C)C)C(=O)N[C@@H](CO)C(=O)N[C@@H](CC(C)C)C(=O)N[C@@H](CC(=O)O)C(=O)N[C@H](C(=O)N1CCC[C@H]1C(=O)N[C@H](C(=O)NCC(=O)N[C@@H](CC(C)C)C(=O)N[C@@H](CC(C)C)C(=O)N[C@@H](CCC(N)=O)C(=O)N[C@H](C(=O)N[C@@H](CC(C)C)C(=O)N[C@@H](CC(C)C)C(=O)N[C@@H](CCC(=O)O)C(=O)N[C@@H](CCC(N)=O)C(=O)N[C@@H](C)C(=O)N[C@@H](CCCNC(=N)N)C(=O)N[C@@H](C)C(=O)N[C@@H](CCCNC(=N)N)C(=O)N[C@@H](C)C(=O)N[C@@H](C)C(=O)N[C@@H](CCCNC(=N)N)C(=O)N[C@@H](CCC(=O)O)C(=O)N[C@@H](CCC(N)=O)C(=O)N[C@@H](C)C(=O)N[C@H](C(=O)N[C@H](C(=O)N[C@@H](CC(N)=O)C(=O)N[C@@H](C)C(=O)N[C@@H](CCCNC(=N)N)C(=O)N[C@H](C(=O)N[C@@H](CC(C)C)C(=O)N[C@@H](C)C(=O)N[C@@H](CCCNC(=N)N)C(=O)N[C@H](C(N)=O)C(C)C)[C@@H](C)CC)[C@@H](C)O)[C@@H](C)O)[C@@H](C)CC)[C@@H](C)CC)C(C)C)C(C)C [hUroII, reference compound] | – | – | 8.44 | < 7.00 |
| CC[C@H](C)[C@H](NC(=O)[C@H](CCCNC(=N)N)NC(=O)[C@H](C)NC(=O)[C@H](CC(N)=O)NC(=O)[C@@H](NC(=O)[C@@H](NC(=O)[C@H](C)NC(=O)[C@H](CCC(N)=O)NC(=O)[C@H](CCC(N)=O)NC(=O)[C@H](CCCCN)NC(=O)[C@H](CCC(=O)O)NC(=O)[C@H](CCCCN)NC(=O)[C@H](CCC(=O)O)NC(=O)[C@H](CCC(N)=O)NC(=O)[C@H](CCCCN)NC(=O)[C@H](CCC(=O)O)NC(=O)[C@@H](NC(=O)[C@H](CCC(=O)O)NC(=O)[C@@H](NC(=O)[C@H](CC(C)C)NC(=O)[C@@H](NC(=O)[C@H](CCCNC(=N)N)NC(=O)[C@H](CC(C)C)NC(=O)[C@H](CC(C)C)NC(=O)[C@H](Cc1ccc(O)cc1)NC(=O)[C@@H](NC(=O)[C@@H]1CCCN1C(=O)[C@@H](NC(=O)[C@H](CC(=O)O)NC(=O)[C@@H](NC(=O)[C@H](CO)NC(=O)[C@@H](NC(=O)[C@@H]1CCCN1C(=O)[C@@H]1CCCN1C(=O)CNC(=O)[C@@H]1CCC(=O)N1)[C@@H](C)CC)[C@@H](C)CC)C(C)C)[C@@H](C)O)[C@@H](C)CC)[C@@H](C)CC)[C@@H](C)CC)[C@@H](C)O)[C@@H](C)O)C(=O)N[C@@H](CC(C)C)C(=O)N[C@@H](C)C(=O)N[C@@H](CCCNC(=N)N)C(=O)N[C@H](C(N)=O)C(C)C [compound 169] | 17.8 | 978 | – | – |
